## Measured water solubility values of organic chemicals

Source: data files of OPERA 2.9 (Mansouri et al.), github.com/kmansouri/OPERA.

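OPERA's authors assembled the values from existing databases and did not measure them anew. A listed value is a point estimate from one report or more. Conditions of the individual experiments are not part of the data. The measured form (salt, isomer or mixture) is not always the one drawn. Some entries may be limits or estimates that an upstream database listed as plain numbers.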

Solubility in water is on a log10 molar scale (set defined at 25 °C).

{"smiles": "NN(CC(=O)O)CC(=O)O", "name": "Acetic acid, 2,2'-hydrazinylidenebis-", "log S (log10 mol/L)": "-1.723"}
{"smiles": "Cc1cccc(Nc2ccncc2S(=O)(=O)NC(=O)NC(C)C)c1", "name": "Torsemide", "log S (log10 mol/L)": "-3.767"}
{"smiles": "Cc1c(N)cccc1S(=O)(=O)O", "name": "3-Amino-2-methylbenzenesulfonic acid", "log S (log10 mol/L)": "-1.74"}
{"smiles": "NC(N)=NCCCCCC(=O)O", "name": "epsilon-Guanidinocaproate", "log S (log10 mol/L)": "-2.387"}
{"smiles": "O=S(=O)(O)c1cc(Br)cc2cccnc12", "name": "6-Bromoquinoline-8-sulfonic acid", "log S (log10 mol/L)": "-2.558"}
{"smiles": "COc1ccc(OC)c(N)c1", "name": "Benzenamine, 2,5-dimethoxy-", "log S (log10 mol/L)": "-1.859"}
{"smiles": "c1ccc(-c2ccc(C(c3ccccc3)n3ccnc3)cc2)cc1", "stereo": "stereo not given", "name": "Bifonazole", "log S (log10 mol/L)": "-5.951"}
{"smiles": "CC(C)(Sc1cc(C(C)(C)C)c(O)c(C(C)(C)C)c1)Sc1cc(C(C)(C)C)c(O)c(C(C)(C)C)c1", "name": "Probucol", "log S (log10 mol/L)": "-7.092"}
{"smiles": "O=C(Nc1ccccc1)NC1CC1", "name": "N-Cyclopropyl-N'-phenylurea", "log S (log10 mol/L)": "-1.9"}
{"smiles": "Cc1cc(N)nc(C)n1", "name": "Kyanmethin", "log S (log10 mol/L)": "-1.28"}
{"smiles": "S=C(SN1CCOCC1)N1CCOCC1", "name": "4-((Morpholinothio)thioxomethyl)morpholine", "log S (log10 mol/L)": "-3.291"}
{"smiles": "Clc1ccc(CO/N=C(\\Cn2ccnc2)c2ccc(Cl)cc2Cl)c(Cl)c1.O=[N+]([O-])O", "name": "Oxiconazole nitrate", "log S (log10 mol/L)": "-5.411"}
{"smiles": "CCN(CC)S(=O)(=O)c1ccc(OC)c(N=Nc2c(O)c(C(=O)Nc3cc(Cl)c(OC)cc3OC)cc3ccccc23)c1", "name": "C.I. Pigment Red 5", "log S (log10 mol/L)": "-7.905"}
{"smiles": "CCN(CCO)S(=O)(=O)C(F)(F)C(F)(F)C(F)(F)C(F)(F)C(F)(F)C(F)(F)C(F)(F)C(F)(F)F", "name": "N-Ethyl-N-(2-hydroxyethyl)perfluorooctanesulfonamide", "log S (log10 mol/L)": "-6.578"}
{"smiles": "CN(C)C(=S)N(C)C", "name": "1,1,3,3-Tetramethyl-2-thiourea", "log S (log10 mol/L)": "-1.389"}
{"smiles": "CC(=O)n1ncc2c(=O)[nH]cnc21", "name": "1-Acetyl-1,5-dihydro-4H-pyrazolo[3,4-d]pyrimidin-4-one", "log S (log10 mol/L)": "-2.378"}
{"smiles": "CCOC(=O)/C(=C/c1ccc2c(c1)OCO2)N=CO", "name": "Ethyl 2-formamido (dioxo-phenyl) acrylate", "log S (log10 mol/L)": "-2.139"}
{"smiles": "CCCCCCCCCCCCCCCCOC(=O)c1cccnc1", "name": "Hexadecyl nicotinate", "log S (log10 mol/L)": "-3.429"}
{"smiles": "CC1=CCC(C(C)(C)O)CC1O", "stereo": "stereo not given", "name": "5-Hydroxy-alpha,alpha,4-trimethylcyclohex-3-ene-1-methanol", "log S (log10 mol/L)": "-0.726"}
{"smiles": "CN(C)c1nc(N)nc(N(C)C)n1", "name": "Melamine, N(sup 2),N(sup 2),N(sup 4),N(sup 4)-tetramethyl-", "log S (log10 mol/L)": "-2.69"}
{"smiles": "O=c1[nH]c(=O)c2[nH]c(=O)[nH]c(=O)c2[nH]1", "name": "1,5-Dihydropyrimido(5,4-d)pyrimidine-2,4,6,8(3H,7H)tetrone", "log S (log10 mol/L)": "-5.456"}
{"smiles": "CCS(=O)(=O)CCBr", "name": "2-Bromoethyl ethyl sulfone", "log S (log10 mol/L)": "-0.439"}
{"smiles": "Cn1c(=O)c2c(ncn2CC=O)n(C)c1=O", "log S (log10 mol/L)": "-1.268"}
{"smiles": "CCN(CCOC(C)OCC(C)C)c1ccc(N=Nc2ccccc2)cc1", "stereo": "stereo not given", "log S (log10 mol/L)": "-7.09"}
{"smiles": "COc1ccccc1N=NC(C(C)=O)C(=O)Nc1ccc2[nH]c(=O)[nH]c2c1", "stereo": "stereo not given", "log S (log10 mol/L)": "-7.631"}
{"smiles": "CN(C)C(=O)COC(=O)c1ccccc1O", "name": "BENZOIC ACID, 2-HYDROXY-, 2-(DIMETHYLAMINO)-2-OX", "log S (log10 mol/L)": "-1.705"}
{"smiles": "CC(O)(C(=O)O)c1ccccc1", "stereo": "stereo not given", "name": "Atrolactic acid", "log S (log10 mol/L)": "-0.893"}
{"smiles": "CC(=O)OCCN(CCC#N)c1ccc(N=Nc2ccc([N+](=O)[O-])cc2)cc1", "name": "C.I. Disperse Orange 31", "log S (log10 mol/L)": "-4.28"}
{"smiles": "COC(CC(=O)O)c1ccccc1", "stereo": "stereo not given", "name": "3-Methoxy-3-phenylpropanoic acid", "log S (log10 mol/L)": "-1.695"}
{"smiles": "NS(=O)(=O)c1ccc(SCCCO)s1", "name": "5-[(3-Hydroxypropyl)sulfanyl]-2-thiophenesulfonamide", "log S (log10 mol/L)": "-1.426"}
{"smiles": "O=C(Nc1ccc2[nH]c(=O)[nH]c2c1)c1cc2ccccc2c(N=Nc2cc(Cl)ccc2Cl)c1O", "log S (log10 mol/L)": "-7.462"}
{"smiles": "CC(=O)Nc1cccc(C(C)=O)c1", "name": "3'-Acetamidoacetophenone", "log S (log10 mol/L)": "-1.623"}
{"smiles": "O=Nc1ccc(N=O)cc1", "name": "Benzene, 1,4-dinitroso-", "log S (log10 mol/L)": "-1.67"}
{"smiles": "CN1CC(=O)NC1=N", "name": "Creatinine", "log S (log10 mol/L)": "-0.15"}
{"smiles": "CN(C)c1ncc2[nH]cnc2n1", "name": "N,N-dimethyl-7H-purin-2-amine", "log S (log10 mol/L)": "-2.665"}

The first 2 entries again:

SMILES	name	log S (log10 mol/L)
NN(CC(=O)O)CC(=O)O	Acetic acid, 2,2'-hydrazinylidenebis-	-1.723
Cc1cccc(Nc2ccncc2S(=O)(=O)NC(=O)NC(C)C)c1	Torsemide	-3.767